Laboratory results as given in US12258367B2, “Glucoside derivative that acts as SGLT1 inhibitor and application thereof” (MEDSHINE DISCOVERY INC., priority 2019, dated 2025).

Sequences of proteins named here, by UniProt entry; tags and fusion partners are left off.
UniProt P31639, whole entry: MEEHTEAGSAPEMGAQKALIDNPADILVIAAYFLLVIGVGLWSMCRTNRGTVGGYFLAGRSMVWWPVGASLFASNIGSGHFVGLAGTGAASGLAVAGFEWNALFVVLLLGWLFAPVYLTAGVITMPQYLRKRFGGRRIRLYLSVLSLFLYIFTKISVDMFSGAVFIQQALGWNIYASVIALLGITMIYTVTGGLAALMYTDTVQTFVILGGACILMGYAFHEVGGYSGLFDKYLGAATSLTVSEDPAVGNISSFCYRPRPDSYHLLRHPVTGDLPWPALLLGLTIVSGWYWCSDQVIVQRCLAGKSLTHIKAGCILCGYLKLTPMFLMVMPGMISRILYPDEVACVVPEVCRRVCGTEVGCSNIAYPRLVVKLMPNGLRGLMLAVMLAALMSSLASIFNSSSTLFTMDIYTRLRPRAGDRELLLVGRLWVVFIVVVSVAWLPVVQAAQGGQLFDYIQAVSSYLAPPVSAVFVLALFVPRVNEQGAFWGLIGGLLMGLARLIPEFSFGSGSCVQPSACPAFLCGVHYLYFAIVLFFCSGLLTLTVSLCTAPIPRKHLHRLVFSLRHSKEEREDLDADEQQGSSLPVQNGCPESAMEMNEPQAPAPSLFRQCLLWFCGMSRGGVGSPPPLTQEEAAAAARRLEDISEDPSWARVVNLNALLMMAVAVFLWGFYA
UniProt P13866, whole entry: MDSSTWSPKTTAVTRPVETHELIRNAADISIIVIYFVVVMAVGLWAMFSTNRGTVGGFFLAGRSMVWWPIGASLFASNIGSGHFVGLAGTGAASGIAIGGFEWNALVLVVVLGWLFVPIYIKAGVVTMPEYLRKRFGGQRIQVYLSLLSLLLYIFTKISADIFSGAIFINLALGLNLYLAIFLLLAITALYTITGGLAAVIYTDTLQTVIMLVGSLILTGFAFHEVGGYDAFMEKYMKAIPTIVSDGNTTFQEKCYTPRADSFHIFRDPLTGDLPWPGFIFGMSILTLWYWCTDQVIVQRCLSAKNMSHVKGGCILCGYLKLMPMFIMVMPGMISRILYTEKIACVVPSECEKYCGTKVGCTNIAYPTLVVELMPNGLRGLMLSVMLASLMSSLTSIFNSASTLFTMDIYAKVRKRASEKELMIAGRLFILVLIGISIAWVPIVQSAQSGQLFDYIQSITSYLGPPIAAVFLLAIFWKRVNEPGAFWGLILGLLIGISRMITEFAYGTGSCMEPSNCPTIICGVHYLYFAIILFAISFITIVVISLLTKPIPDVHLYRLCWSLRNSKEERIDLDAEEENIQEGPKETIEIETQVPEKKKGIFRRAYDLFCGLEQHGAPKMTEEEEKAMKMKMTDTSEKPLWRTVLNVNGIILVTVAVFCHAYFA

Assays:
Human-SGLT2 = Human-SGLT2 (Homo sapiens, UniProt P31639); assay: SGLT2 glucose transport assay ([14C]-methyl α-D-glucopyranoside uptake); conditions: read-out: Human-SGLT2 IC50; cells stably expressing Human-SGLT2, 37° C. for 2 hours
Experimental: The effect of the compound on the glucose transport activity of the SGLT2 transporter was detected by measuring the amount of [^14C]-labeled glucose entering cells highly expressing Human-SGLT2.
The cells stably expressing Human-SGLT2 used in the assay were constructed by Shanghai WuXi AppTec. The SGLT2 cells were plated on a 96-well cell culture plate (Greiner) and cultured at 5% CO2, 37° C. overnight.
• 1) Assay buffer: 10 mM HEPES, 1.2 mM MgCl2, 4.7 mM KCl, 2.2 mM CaCl2 and 120 mM NaCl. • 2) Stop buffer: 10 mM HEPES, 1.2 mM MgCl2, 4.7 mM KCl, 2.2 mM CaCl2, 120 mM NaCl and 1 μM LX4211. • 3) The compound with a starting concentration of 10 μM was serially diluted 5-fold with 100% DMSO to 8 concentrations. • 4) 6 μM [^14C]Methyl a-D-glucopyranoside was prepared with the assay buffer. • 5) The cells were treated with 49 μL of the assay buffer, 1 μL of the serially diluted compound, and 50 μL of the 6 μM [^14C] isotope-labeled sugar solution at 37° C. for 2 hours. • 6) The liquid in the well was aspirated and the cells were rinsed three times with the stop buffer. • 7) The cells were lysed with 50 μL of 10% sodium hydroxide solution, the cell lysate was pipetted into a scintillation tube, and 2 mL of scintillation fluid was added. • 8) An isotope detector (Tricarb) was used to read. • 9) The data were processed by GraphPad Prism 5.0 software with the calculation formula: log(inhibitor) vs. response—Variable slope to give the IC50 value of the test compound.

Human-SGLT1 = Human-SGLT1 (Homo sapiens, UniProt P13866); assay: SGLT1 glucose transport assay ([14C]-methyl α-D-glucopyranoside uptake); conditions: read-out: Human-SGLT1 IC50; cells stably expressing Human-SGLT1, 37° C. for 2 hours

| IC50 (Human-SGLT2) | IC50 (Human-SGLT1) | Compound |
| --- | --- | --- |
| 3.3 nM | 50 nM | CS[C@H]1O[C@@H](c2cc(C)c(Cl)c(Cc3ccc(OC4CCN(C(=O)C[C@H](N)Cc5cc(F)c(F)cc5F)CC4)cc3)c2)[C@H](O)[C@@H](O)[C@@H]1O |
| 1.5 nM | 21 nM | CS[C@H]1O[C@@H](c2cc(Cc3ccc(OC4CCN(C(=O)C[C@H](N)Cc5cc(F)c(F)cc5F)CC4)cc3)c(Cl)cc2C)[C@H](O)[C@@H](O)[C@@H]1O |
| 2.9 nM | 0.5 nM | CCc1ccc([C@@H]2O[C@H](SC)[C@@H](O)[C@H](O)[C@H]2O)cc1Cc1ccc(OC2CCN(C(=O)C[C@H](N)Cc3cc(F)c(F)cc3F)C2)cc1 (single isomer, unassigned) [WXD002] |
| 6.5 nM | 0.7 nM | CCc1ccc([C@@H]2O[C@H](SC)[C@@H](O)[C@H](O)[C@H]2O)cc1Cc1ccc(OC2CCN(C(=O)C[C@H](N)Cc3cc(F)c(F)cc3F)C2)cc1 (single isomer, unassigned) [WXD001] |
